In ChEMBL document CHEMBL1143625, “Bisphosphonate inhibitors of Toxoplasma gondi growth: in vitro, QSAR, and in vivo investigations” (J Med Chem, 2005):

Test: Therapeutic index (TI) value as ratio of lethal dose (LD50) to the inhibitory concentration (IC50)
Assay type: cell-based
Conditions: human, kb

NCCCC(O)(P(=O)(O)O)P(=O)(O)O [ALENDRONIC ACID]
TI: 1.33
